Values quoted from earlier work in article PMC2783503 (Journal of medicinal chemistry, 2009).

How the values were obtained:
κ opioid receptor = details: Ki^κ relative to Ki^δ = 1; ref Schiller et al.[10]; cited from earlier work
μ opioid receptor [1] = details: Ki^μ relative to Ki^δ = 1; ref Schiller et al.[10]; cited from earlier work
μ opioid receptor [2] = details: read-out: GPI IC50; ref Schiller et al.[10]; cited from earlier work

H-Tyr-Tic-Phe-Phe-OH [compound 8]
Ki ratio δ/μ/κ: κ term (κ opioid receptor): > 820 | Ki ratio δ/μ/κ: μ term (μ opioid receptor [1]): 1410 | IC50 (μ opioid receptor [2]): > 10 µM
